These results are taken from ChEMBL document CHEMBL4020717.

The chains behind the UniProt entries cited, without tags or fusion partners. Residues count along the entry.
UniProt P06276, 29-602 limits assumed: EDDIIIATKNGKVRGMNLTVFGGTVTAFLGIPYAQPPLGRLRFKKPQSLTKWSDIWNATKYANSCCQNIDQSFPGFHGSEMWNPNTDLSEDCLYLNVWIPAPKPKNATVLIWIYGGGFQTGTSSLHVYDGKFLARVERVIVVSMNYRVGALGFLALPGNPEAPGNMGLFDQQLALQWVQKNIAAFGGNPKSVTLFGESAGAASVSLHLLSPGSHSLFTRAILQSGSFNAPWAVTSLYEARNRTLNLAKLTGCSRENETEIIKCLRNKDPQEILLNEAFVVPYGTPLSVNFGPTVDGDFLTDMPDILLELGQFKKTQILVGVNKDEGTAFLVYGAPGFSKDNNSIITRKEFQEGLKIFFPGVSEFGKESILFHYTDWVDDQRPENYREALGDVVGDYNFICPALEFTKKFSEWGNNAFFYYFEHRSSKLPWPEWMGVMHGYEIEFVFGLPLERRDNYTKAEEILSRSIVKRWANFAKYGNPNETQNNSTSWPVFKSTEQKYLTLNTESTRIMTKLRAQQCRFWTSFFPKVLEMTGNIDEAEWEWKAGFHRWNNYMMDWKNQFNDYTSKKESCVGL

The IC50 is the point on the concentration scale where inhibition reaches its midpoint. Low values mean higher potency, high ones lower potency.

The assay concerns the target Cholinesterase (Homo sapiens, UniProt P06276). Briefly: Inhibition of human BChE using butyrylthiocholine as substrate measured for 30 secs by Ellman's method. For orientation: DTNB colorimetry detects thiols as they appear.

Only a part of the results on these compounds is given; other tests are left out.

`CCOP(=O)(OCC)Oc1ccc([N+](=O)[O-])cc1` gave an IC50 of 7 nM.
